Measurements reported in ChEMBL document CHEMBL1139835, “Novel quinolizidinyl derivatives as antiarrhythmic agents” (J Med Chem, 2007).

Tests used:
Format in all cases: functional, Cavia porcellus
Heart [1] = test: Heart rate in spontaneously beating Langendorff-perfused guinea pig heart at 1 nM; design: unit not given here
Heart [2] = test: Ventricular action potential duration in spontaneously beating Langendorff-perfused guinea pig heart at 10 nM
Heart [3] = test: Heart rate in spontaneously beating Langendorff-perfused guinea pig heart at 10 nM; design: unit not given here

C=C[C@H]1CN2CC[C@H]1C[C@@H]2[C@@H](O)c1ccnc2ccc(OC)cc12 [QUINIDINE]
Activity (Heart [1]): 160
Activity (Heart [2]): 170 ms
Activity (Heart [3]): 153
